The source of these data is PubChem BioAssay AID1012 (Sanford-Burnham Center for Chemical Genomics, 2008).

Chains of the proteins cited; added tags and fusions are not shown.
UniProt P05186, whole entry: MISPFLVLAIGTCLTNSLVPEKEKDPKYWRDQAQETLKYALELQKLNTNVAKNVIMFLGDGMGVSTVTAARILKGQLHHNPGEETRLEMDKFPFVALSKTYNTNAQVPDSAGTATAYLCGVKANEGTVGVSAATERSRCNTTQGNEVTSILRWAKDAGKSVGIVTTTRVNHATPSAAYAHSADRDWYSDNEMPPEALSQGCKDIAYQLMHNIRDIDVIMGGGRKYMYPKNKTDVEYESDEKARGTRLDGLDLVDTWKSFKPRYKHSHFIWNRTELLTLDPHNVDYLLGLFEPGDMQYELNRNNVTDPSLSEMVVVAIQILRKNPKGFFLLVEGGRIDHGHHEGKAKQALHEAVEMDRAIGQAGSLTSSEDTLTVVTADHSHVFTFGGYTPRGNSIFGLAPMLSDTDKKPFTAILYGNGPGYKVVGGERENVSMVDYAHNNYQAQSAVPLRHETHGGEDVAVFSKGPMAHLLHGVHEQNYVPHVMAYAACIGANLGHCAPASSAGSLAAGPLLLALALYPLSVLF

The list shows a part of the results, in another mix than the full data. The source made the active and inactive calls.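 The calls were made as follows: active = tissue-nonspecific alkaline phosphatase inhibition above about 50% at 20 µM in the single-dose screen (limit read from the data); inactive = the rest.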

The target in the test is Alkaline phosphatase, tissue-nonspecific isozyme (Homo sapiens) (UniProt P05186). The test can be described thus: blockers of alkaline phosphatase TNAP activity – biochemical, luminescent, no phosphate acceptor, uHTS, primary screen (AID 1012).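 Also: 0% = DMSO negative control and 100% = EDTA positive control.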 Particulars: purified TNAP, CDP-star luminescence, 30 min; at 20 µM; hits give high values.
Broadly, the inhibition is the drop in the measured response relative to a control, in per cent. As for `Cc1nc2ccc3ccccc3c2o1.O=[N+]([O-])c1cc([N+](=O)[O-])c(O)c([N+](=O)[O-])c1`, the inhibition was inactive: -6.7%.
As for `CP(=O)(OCCOc1ccccc1)OCCOc1ccccc1`, the inhibition is inactive: -7.3%.
Take `CP(=O)(Nc1ccc(Cl)cc1Cl)Oc1ccccc1` (centres undefined): the inhibition is inactive: -9.8%.
With `Cc1cc(C)cc(OP(C)(=O)Nc2cccc(C(F)(F)F)c2)c1` (centres undefined), the inhibition was inactive: -1.1%.
`COc1ccc(OP(C)(=O)Nc2ccccc2Br)cc1` (centres undefined): the inhibition is inactive: -5.7%.
With `COc1ccccc1OP(C)(=O)Nc1ccc(C)c(C)c1` (centres undefined), the inhibition was inactive: -7.7%.
Take `O=[N+]([O-])c1cc([N+](=O)[O-])c(Nc2ccccn2)c([N+](=O)[O-])c1`: the inhibition was inactive: 31.6%.
For the molecule `Cc1c(NP(C)(=O)Oc2ccc(C(C)C)cc2)c(=O)n(-c2ccccc2)n1C` (centres undefined), the inhibition was inactive: 0.9%.
As for `CCc1ccc(OP(C)(=O)O)cc1`, the inhibition was inactive: -10.1%.
For `CP(=O)(Nc1ccccn1)Oc1ccccc1` (centres undefined), the inhibition was inactive: -9.5%.
As to `COc1ccccc1OP(C)(=O)Nc1ccc(C)cc1C` (centres undefined), the inhibition is inactive: -6.6%.
In the case of `CN(C)CCOC(=O)C(O)(c1ccccc1)C1CCCC1` (centres undefined), the inhibition is inactive: 1.7%.
Consider `COc1ccc(OP(C)(=O)Nc2ccccn2)cc1` (centres undefined), for which the inhibition was inactive: -17.2%.
In the case of `CP(=O)(Nc1ccc(Cl)cc1)Oc1ccc(F)cc1` (centres undefined), the inhibition was inactive: -9.6%.
Consider `CC(C)(C)c1ccc(OP(C)(=O)O)cc1`, for which the inhibition was inactive: 1%.
To `COc1ccccc1OP(C)(=O)Nc1ccccc1Br` (centres undefined) belongs inactive: -9.2%; to `CN(C)C(=O)c1c([N+](=O)[O-])cc([N+](=O)[O-])cc1[N+](=O)[O-]`, inactive: -6.7%.
For `CCN(CC)CC(O)COC(=O)C(O)(c1ccccc1)C1CCCCC1` (centres undefined), the inhibition is inactive: -9.4%.
Consider `COc1ccc(OP(C)(=O)Nc2ccc(Br)cc2)cc1` (centres undefined), for which the inhibition is inactive: -9.8%.
Regarding `CP(=O)(Oc1ccccc1)N1CCOC1=O` (centres undefined), the inhibition is inactive: -11%.
To `CCc1ccc(OP(C)(=O)Nc2cccnc2)cc1` (centres undefined) belongs inactive: -7.3%; to `COc1ccccc1OP(C)(=O)Nc1c(C)n(C)n(-c2ccccc2)c1=O` (centres undefined), inactive: -13.6%.
As for `CP(=O)(OC12CC3CC(CC(C3)C1)C2)OC12CC3CC(CC(C3)C1)C2`, the figure is inactive: -2.5%; as for `CCOC(=O)c1ccc(NP(C)(=O)Oc2ccc(Cl)cc2)cc1` (centres undefined), inactive: -10.7%; as for `O=[N+]([O-])c1cc([N+](=O)[O-])c(NCC2CCS(=O)(=O)C2)c([N+](=O)[O-])c1` (centres undefined), inactive: -2.4%.
On to `COc1ccc(OP(C)(=O)Nc2cccc(Br)c2)cc1` (centres undefined), for which the inhibition is inactive: -12.3%.
For `COc1ccc(NP(C)(=O)Oc2ccccc2OC)cc1` (centres undefined), the inhibition was inactive: -8.7%.
To `CN(C)CCOC(=O)C(O)(c1ccccc1)C1CCCCC1` (centres undefined) belongs inactive: 3.4%; to `CP(=O)(Nc1ccc2c(c1)OCCO2)Oc1ccccc1` (centres undefined), inactive: -8%.
As for `Cc1ccccc1NP(C)(=O)Nc1ccccc1C`, the inhibition was inactive: -5%.
To `CCOP(C)(=S)SCC(=O)NC(C)(CC)C(=O)O` (centres undefined) belongs inactive: -4.4%; to `O=C(OCCN1CCN(CCOCc2ccccc2)CC1)C(O)(c1ccccc1)c1ccccc1`, inactive: -8.2%.
To `CC(C)c1ccc(OP(C)(=O)Nc2ccc(SC(F)(F)F)cc2)cc1` (centres undefined) belongs inactive: -10.9%.
Take `CP(=O)(Nc1ccccc1F)Oc1ccccc1` (centres undefined): the inhibition is inactive: -8.1%.
For the molecule `CCN(CC)CCCOC(=O)C(O)(c1ccccc1)C1CCCCC1` (centres undefined), the inhibition is inactive: -4%.
For the molecule `CP(=O)(Nc1ccccc1)Oc1ccc(F)cc1` (centres undefined), the inhibition is inactive: -9.5%.
To `COc1ccc(OP(C)(=O)Nc2ccc(SC(F)(F)F)cc2)cc1` (centres undefined) belongs inactive: -2.8%.
Turning to `CCOC(=O)c1ccc(NP(C)(=O)Oc2ccc(F)cc2)cc1` (centres undefined), the inhibition was inactive: -6.4%.
As for `CC1=NCCc2c1[nH]c1ccccc21.O=[N+]([O-])c1cc([N+](=O)[O-])c(O)c([N+](=O)[O-])c1`, the inhibition was inactive: -10.4%.
Consider `CP(=O)(Nc1cccc(Br)c1)Oc1ccccc1` (centres undefined), for which the inhibition is inactive: -10.8%.
As to `Cc1cc(C)cc(OP(C)(=O)Nc2ccccn2)c1` (centres undefined), the inhibition was inactive: -10.8%.
Take `Cc1ccc(C)c(NP(C)(=O)Oc2ccccc2)c1` (centres undefined): the inhibition was inactive: -7.8%.
Consider `Cc1cc(C)cc(OP(C)(=O)Nc2ccc(C)cc2C)c1` (centres undefined), for which the inhibition was inactive: -8.5%.
To `CCOC(=O)c1ccc(NP(C)(=O)Oc2cc(C)cc(C)c2)cc1` (centres undefined) belongs inactive: 2.5%; to `Cc1nc2ccc3ccccc3c2s1.O=[N+]([O-])c1cc([N+](=O)[O-])c(O)c([N+](=O)[O-])c1`, inactive: -4%; to `O=[N+]([O-])c1cc([N+](=O)[O-])c(-n2nnc3ccccc32)c([N+](=O)[O-])c1`, inactive: 10.9%.
`CN1CCCCC1COC(=O)C1(O)c2ccccc2CCc2ccccc21` (centres undefined): the inhibition was inactive: -0.7%.
To `COc1ccccc1OP(C)(=O)Nc1c(C)cccc1C` (centres undefined) belongs inactive: 4.7%; to `CP(=O)(Nc1ccc(SC(F)(F)F)cc1)Oc1ccccc1` (centres undefined), inactive: -3.7%.
With `CCCOc1ccc(NP(C)(=O)Oc2ccc(Cl)cc2)cc1` (centres undefined), the inhibition is inactive: -7.1%.
On to `CP(=S)(Nn1cnnc1)Oc1ccccc1` (centres undefined), for which the inhibition is inactive: -11%.
For the molecule `COc1ccccc1OP(C)(=O)Nc1ccccc1` (centres undefined), the inhibition is inactive: -12.7%.
To `CP(=O)(Nc1ccccc1Br)Oc1ccccc1` (centres undefined) belongs inactive: -7.1%; to `CCOP(C)(=S)SCC(=O)NC(C)C(=O)O` (centres undefined), inactive: -7.7%; to `CCOC(=O)c1ccc(NP(C)(=O)Oc2ccc(OC)cc2)cc1` (centres undefined), inactive: -6.3%.
For `CP(=O)(Nc1ccccn1)Oc1ccc(Cl)cc1` (centres undefined), the inhibition is inactive: -7%.
On to `Cc1cccc(C)c1OP(C)(=O)Nc1ccc(SC(F)(F)F)cc1` (centres undefined), for which the inhibition was inactive: 1.2%.
As for `CP(=O)(Oc1ccccc1)OC(c1ccccc1)C(F)(F)F` (centres undefined), the figure is inactive: -12.3%; as for `CP(=O)(NC(=O)Nc1ccccc1)Oc1ccccc1` (centres undefined), inactive: -13.7%; as for `Cc1cc(C)cc(OP(C)(=O)Nc2ccc(SC(F)(F)F)cc2)c1` (centres undefined), inactive: -10.4%.
As to `CCN(CC)CCCOC(=O)C(O)(c1ccccc1)c1ccccc1`, the inhibition was inactive: -12.6%.
To `CCOC(=O)c1ccc(NP(C)(=O)Oc2ccccc2)cc1` (centres undefined) belongs inactive: -5.8%; to `COc1ccccc1OP(C)(=O)Nc1ccc(C)cc1` (centres undefined), inactive: -6.2%; to `COc1ccccc1OP(C)(=O)Nc1cc(Cl)ccc1C` (centres undefined), inactive: -5.2%.
As for `COc1ccc(OP(C)(=O)Nc2cccc(F)c2)cc1` (centres undefined), the inhibition was inactive: -8.6%.
On to `Cc1cc(C)cc(OP(C)(N)=O)c1` (centres undefined), for which the inhibition is inactive: -16%.
Take `CC(C)(C)c1ccc(OP(C)(=O)Nc2ccc(SC(F)(F)F)cc2)cc1` (centres undefined): the inhibition is inactive: 18.5%.
With `Cc1cccc(C)c1OP(C)(N)=O` (centres undefined), the inhibition is inactive: -15.4%.
For `O=[N+]([O-])c1ccc2c(c1)C=Nc1ccccc1O2`, the inhibition is inactive: -2.4%.
